Hits are enriched below; roughly 0.92% of the tested compounds scored in any of these assays.
miR-21 FLuc = miR-21 reporter, rising signal. HeLa miR-21 FLuc reporter, luciferase, 48 h. Potency, µM (titrated, usually from 38.3 µM). 340,000 tested, under 10 active. AID 2288; active = well fitted rising curve with a large enough effect; inconclusive = small, poorly fitted or top-dose-only effect; inactive = no such curve, though single readings can be large or run the other way;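 also: miR-21 action dims this reporter so a rising signal means less miR-21 action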
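HeLa cells stably expressing CMV-driven firefly luciferase with a downstream miR-21 binding sequence, endogenously expressing miR-21, were treated with titrations (up to about 40uM final) for 48 hours at 37 degree Celsius. Luciferase luminescence was read after lysis.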
Luc counter = counter-screen: inhibitors of Kinase-Glo firefly luciferase; Q27757; Kinase-Glo luciferase, ATP luminescence, 8 min; Potency, µM (highest dose often 38.3 µM), usual class: inhibitors; 200,000 compounds, 0.28% hits; AID 1379; note: nearly all actives have a fitted effect of over 60% in size
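Substrate mix (final 50 mM imidazole pH 7.2, 50 mM KCl, 7 mM MgCl2, 10 uM ATP, 0.01% Tween 20, 0.05% BSA) plus pin-tool compound, then Kinase-Glo detection mix; 8 min ambient, luminescence read.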
RXFP1 antagonist = RXFP1 (human) relaxin receptor antagonism. AID 1259400. activity change, negative = inhibition, % at 57.5 µM. Q9HBX9. HEK293-RXFP1, relaxin-stimulated cAMP HTRF, 30 min; hits give low values. 350,000 compounds, 0.59% hits;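 active = activity change of -60% or lower, but not beyond a set lower limit; inconclusive = change between -60% and -40%, or beyond the set limit; inactive = change above -40%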
PKM2 activator = activators of human pyruvate kinase M2; Potency, µM (doses to about 57.5 µM), hits mostly activators; 260,000 compounds, 0.34% hits; P14618; purified PKM2, Kinase-Glo ATP luminescence, activation; response scale: 0% is enzyme alone, no compound; note: nearly all actives have a fitted effect of over 55% in size
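hPK-M2, >95% pure; 0.1 mM ADP / 0.5 mM PEP final; imidazole pH7.2 buffer w/ 7 mM MgCl2, 50 mM KCl; 1 h RT; Kinase-Glo lum. Intermediate enzyme activity for dual inhibitor/activator qHTS.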
RXFP1 ag = RXFP1 (human) receptor agonism; Q9HBX9; HEK293T-RXFP1 cAMP TR-FRET, 30 min; response scale: percent of porcine relaxin response, buffer zero; Potency, µM (titrated, usually from 57.5 µM), actives largely listed as activators; 370,000 compounds, 0.3% hits; note: nearly all actives have a fitted effect of over 60% in size
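Agonist response is measured as cAMP accumulation in an RXFP1-transfected HEK293T line under PDE4 inhibition. Values are scaled between buffer-only and 29 nM porcine relaxin, and EC50s come from standard Hill equation fits.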
GALK inhibitor = blocks human galactokinase activity | P51570 | Purified GALK, Kinase-Glo residual ATP luminescence | Potency, µM (series often up to 57.5 µM), hits mostly inhibitors | 270,000 compounds, 0.007% hits | AID 1868
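Quantitative HTS: GALK 5 nM, ATP 35 uM, galactose 100 uM, 1 h room temperature, then luciferase-based ATP detection.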
A number is an active result; . = inactive; ? = inconclusive; / = not tested or not shown; [ ] = dose if it differs, or a comment. Unless noted, calls come from the whole dose curve; as a rule, active = well fitted curve in the direction sought with a large enough effect; inconclusive = small, poorly fitted or top-dose-only effect, or another doubt; inactive = no such curve, though single readings can be large; an effect the other way counts as inactive or inconclusive.

SMILES	miR-21 FLuc	Luc counter	RXFP1 antagonist	PKM2 activator	RXFP1 ag	GALK inhibitor
COc1cccc([C@@H]2Oc3ccc(OC)cc3C(=O)[C@H]2OC(=O)NCc2ccco2)c1	/	.	/	/	/	/
COc1ccc(N2C(=O)CCSC23C(=O)N(Cc2ccc(F)cc2)c2ccccc23)cc1 (stereo not drawn)	.	/	-82	/	.	/
CN(C)c1ccc(/C=C/c2c([N+](=O)[O-])c(=O)n(C)c(=O)n2C)cc1	.	/	.	/	.	.
CN(C)c1ccc(-n2cccc2/C=C/[N+](=O)[O-])cc1	?	.	-83	.	.	.
CCOC(=O)c1c(-c2ccc(C)o2)csc1NC(=S)NC(=O)c1ccccc1Br	.	.	.	3.2µM	.	.
CCOC(=O)c1c(-c2ccc(C)o2)csc1NC(=O)CSc1nnnn1-c1ccccc1	.	.	.	7.9µM	.	.
CCOC(=O)c1c(-c2ccc(C)o2)csc1NC(=O)CSc1nnc(C)s1	.	.	.	13µM	.	.
CCCCCCCCCCCCC(=O)N1CCCC[C@H]1CNC(=O)[C@@H](N)CCCCN	/	.	/	/	/	/
CCOc1ccccc1-n1nnnc1SCC(=O)N1CCCC1=O	/	/	.	/	/	/
O=C(Nc1nc2ccsc2c(=O)s1)c1ccc(Cl)cc1	.	/	.	.	13µM	.
O=C(Nc1nc(=O)c2ccccc2s1)c1ccc(Cl)cc1	.	.	.	.	32µM	.
CS(=O)(=O)c1ccc2nc(NC(=O)c3ccc(Cl)cc3)sc2c1	.	/	.	.	.	.
C[C@@H](NC(=O)c1cc2c([nH]c3ccccc32)c(-c2ccccc2)n1)C(=O)O	.	/	.	/	.	.
Cc1cccc(-c2cc3c(N=O)c4ccccc4c-3n[nH]2)c1	.	10µM	.	.	.	.
O=c1[nH]nc(-c2ccccc2)c2ccccc12	.	/	.	.	.	.
Cc1ccc(-c2cc(=O)c3ccccc3[nH]2)cc1	.	.	/	.	.	/
Cc1ccc(-c2cc3c(N=O)c4ccccc4c-3n[nH]2)cc1	?	10µM	.	.	.	.
O=Nc1c2cc(-c3ccccc3)[nH]nc-2c2ccccc12	.	2.2µM	.	.	.	.
COC(=O)C1=C(C)NC(C)=C(C(=O)OCCCN2CCC(c3ccccc3)(c3ccccc3)CC2)[C@H]1c1cccc([N+](=O)[O-])c1	/	.	/	/	/	/
CCCC(=O)OCOC(=O)C1=C(C)NC(C)=C(C(=O)OC)C1c1cccc(Cl)c1Cl (stereo not drawn)	/	/	.	/	/	/
Cc1ccccc1OCCC(=O)OCC(=O)N(C)c1c(N)n(Cc2ccccc2)c(=O)[nH]c1=O	.	/	.	.	.	.
Cc1ccc(C)c(OCCC(=O)OCC(=O)N(C)c2c(N)n(Cc3ccccc3)c(=O)[nH]c2=O)c1	/	/	-64	/	.	/
CN(C(=O)c1cncc(Br)c1)c1c(N)n(Cc2ccccc2)c(=O)[nH]c1=O	/	/	-70	/	.	/
Cc1nc(SCc2ccccc2)c2ccsc2n1	.	.	.	16µM	.	.
CCOC(=O)[C@H](CCc1ccccc1)N[C@@H](C)C(=O)N(CC(=O)O)C1Cc2ccccc2C1	/	/	.	/	/	/
SMILES	miR-21 FLuc	Luc counter	RXFP1 antagonist	PKM2 activator	RXFP1 ag	GALK inhibitor
COc1ccc(/C=N/NC(=O)c2cccnc2)cc1COc1ccc([N+](=O)[O-])cc1	.	/	-85	.	.	.
COc1ccc(/C=N/NC(=O)c2cccnc2)cc1COc1ccc(NC(C)=O)cc1	.	/	?	.	.	.
c1ccc2c(c1)ccc1nnc(SCc3ccc4c(c3)OCCO4)n12	.	.	/	22µM	.	.
COc1ccc(C(=O)NCC(=O)n2nc(C)cc2C)cc1OC	.	.	.	.	.	.
Cc1cc(C)n(C(=O)CNC(=O)c2ccc(C(C)(C)C)cc2)n1	.	/	-116	.[0.46 µM]	.	.
CCCCc1nc2c(c3c1C[C@H](C)OC3)CN(C(=O)COC)CC2	/	.[7.66 µM]	/	.[11.5 µM]	/	/
Cc1cc(C)c(NN=c2c(=O)c3ccccc3c2=O)c(C)c1	.	.	.	.	.	.
O=c1c(=NNc2ccccc2Cl)c(=O)c2ccccc12	.	6.3µM	/	.	.	.
O=C1C=CC2C3C(=O)N(c4ccccc4)C(=O)C3C1N2Cc1ccccc1 (stereo not drawn)	/	/	-108	/	/	/
CCCN1CCN(CCNC(=O)Nc2cc(C)ccc2C)CC1	.	/	.	/	.	.
O=C(NCCN1CCCCC1)Nc1cccc(Cl)c1Cl	.	/	-77	.	.	.
Cc1ccc(C)c(NC(=O)NCCN2CCCCC2)c1	.	/	-77	.	.	.
C=CCN1C[C@H](C(=O)N(CCCN(C)C)C(=O)NCC)C[C@@H]2c3cccc4[nH]cc(c34)C[C@H]21	/	/	.	/	/	/
Cc1cc2nc(-c3ccc(SCc4ccc(C(=O)O)cc4)nc3)[nH]c2cc1C	.	.	-98	.	.	.
Cc1cc(N2C(=O)C(O)=C(C(=O)c3cc4ccccc4o3)C2c2cccc(Br)c2)no1 (stereo not drawn)	.	/	.	/	16µM	.
O=C(NNc1cc(Br)c(O)c(Br)c1)c1ccccc1	.	.	-96	.	.	.
Cc1nn(S(=O)(=O)c2ccc(F)cc2)c(C)c1S(=O)(=O)N1CCOCC1	.	/	.	/	.	.
CCc1ccc(NC(=O)N2CC(C)Oc3ccc(C)cc32)cc1 (stereo not drawn)	.	/	-62	/	.	/
CCOc1ccccc1NC(=O)N1CC(C)Oc2ccc(Cl)cc21 (stereo not drawn)	.	/	-83	/	.	/
CCOC(=O)c1ccccc1NC(=O)N1CC(C)Oc2ccc(C)cc21 (stereo not drawn)	.	/	?	/	.	/
CCC1CN(C(=O)Nc2cccc3c2CCCC3)c2cc(C)ccc2O1 (stereo not drawn)	.	/	-73	/	.	/
O=C1S/C(=C/c2ccc(N3CCOCC3)o2)C(=O)N1Cc1ccc(F)cc1	.	.	.	2µM	.	.
O=C1/C(=C/c2ccc(N3CCOCC3)o2)SC(=Nc2ccccc2)N1CCc1c[nH]c2ccccc12	?	.	-81	?	.	.
O=C1NC(=S)S/C1=C/c1ccc(N2CCOCC2)o1	.	?	.	.	.	.
O=C1S/C(=C\c2ccc(N3CCOCC3)o2)C(=O)N1Cc1ccc(F)cc1	.	.	.	2µM	.	.
CCC1CSC(Nc2ccc(C(=O)/C=C/c3cccc(C)c3)cc2)=N1 (stereo not drawn)	.	.	.	.	.	.
CC(=O)Oc1ccc(C2(c3ccc(OC(C)=O)cc3)Oc3ccccc3NC2=O)cc1	/	/	.	/	/	/
Cc1ccccc1C(C(=O)NC1CCCC1)N(C(=O)CNC(=O)c1ccco1)c1cccnc1 (stereo not drawn)	.	.	/	.	.	.
